Data published in US20210252032A1, “DRUGS FOR GRP78 CELL SURFACE TRANSLOCATION AND PAR-4 SECRETION” (University of Kentucky Research Foundation, priority 2020, published 2021).

Test system: ALK-negative A549 lung tumor cells
Test: GRP78 cell surface expression in A549 lung tumor cells (FIG. 1)
Assay type: cell-based

In the case of C[C@@H](Oc1cc(-c2cnn(C3CCNCC3)c2)cnc1N)c1c(Cl)ccc(F)c1Cl [CZT, Crizotinib], the “Par-4 receptor GRP78 on the cell surface” value was “elevated”.
